One data set deals with human MAGL (Homo sapiens, UniProt Q99685). As to the kind of experiment: In vitro MAGL inhibition assay (2-AG hydrolysis followed by mass spectrometry).
The target of a further data set is mouse MAGL (Mus musculus, UniProt O35678). The description is as above.
Data set [1] can be described thus: Fluorescence excitation/absorption and emission maxima. To be noted: for λ Abs max / λ Em max: Table S3; for λmax Em (fluorescence emission maximum) / λmax Ex (fluorescence excitation maximum): PBS pH 7.4.
The target in data set [2] is NanoLuc luciferase MAGL fusion protein in HEK293A cells (Homo sapiens, UniProt Q99685). As to the kind of experiment: Cellular MAGL NanoBRET target engagement assay. A general note: In BRET a luciferase serves as donor, and the signal depends on an acceptor being close.
Data set [3] concerns serine hydrolases of the mouse brain proteome (MAGL, DAGL, FAAH, ABHD6, ABHD12). Briefly: Competitive multiplex ABPP in mouse brain proteome. The conditions noted are these: 1 μM probe.
For a further data set, the system named is HT-29 cells. Briefly: Confocal live cell imaging of HT-29 cells. The conditions noted are these: 0.15 μM, without additional washing steps.
Data set [4] has as its target MAGL splicing variants in mouse brain proteome (Mus musculus, UniProt O35678). Briefly: In-gel SDS-PAGE fluorescence labeling of mouse brain proteome with irreversible probes.
Setting [5] is: read-out: IC50 hMAGL, Supporting Information Tables S1-S5.
The mark [6] stands for this setting: read-out: IC50 mMAGL, Supporting Information Tables S1-S5.
[7] abbreviates: read-out: hMAGL IC50±SD, Table 2, mean of three independent measurements ± SD.
Where [8] appears, read: read-out: mMAGL IC50±SD, Table 2, mean of three independent measurements ± SD.
[9] abbreviates: read-out: HEK 293 nanoBRET IC50±SD, Table 2, mean of three independent measurements ± SD.

Protein sequences, listed by entry. Tags and fused reporters are not part of them. Lines headed by an entry give the natural chain unless they say otherwise; changes in a name come on top.
UniProt Q99685, whole entry: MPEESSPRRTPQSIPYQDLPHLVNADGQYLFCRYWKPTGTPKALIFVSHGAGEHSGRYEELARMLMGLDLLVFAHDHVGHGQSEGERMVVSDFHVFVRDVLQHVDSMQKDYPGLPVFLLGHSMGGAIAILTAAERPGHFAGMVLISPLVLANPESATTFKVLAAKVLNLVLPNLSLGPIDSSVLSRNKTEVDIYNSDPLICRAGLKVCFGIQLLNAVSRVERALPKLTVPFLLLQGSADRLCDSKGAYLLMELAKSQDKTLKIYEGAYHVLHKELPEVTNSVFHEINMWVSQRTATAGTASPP
UniProt O35678, whole entry: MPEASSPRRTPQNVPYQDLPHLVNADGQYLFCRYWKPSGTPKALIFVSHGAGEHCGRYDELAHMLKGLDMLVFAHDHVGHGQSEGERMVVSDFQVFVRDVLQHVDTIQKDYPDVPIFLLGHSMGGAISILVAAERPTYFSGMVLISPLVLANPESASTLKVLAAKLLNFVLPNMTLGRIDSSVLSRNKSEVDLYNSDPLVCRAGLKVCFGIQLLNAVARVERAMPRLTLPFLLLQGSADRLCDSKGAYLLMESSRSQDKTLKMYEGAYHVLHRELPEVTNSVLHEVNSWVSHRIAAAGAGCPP

Like-named read-outs stand apart in the source and are kept apart here.

As a reminder, the IC50 is the concentration that inhibits the measured activity by half.

With `CC1=CC(C)=[N+]2C1=Cc1ccc(CCC(=O)NCCOc3ccccc3COCC3CN(C(=O)N4CC[C@@H]5OCC(=O)N[C@@H]5C4)C3)n1[B-]2(F)F`, the IC50 at human MAGL (setting [5]) turned out to be 8 nM. The IC50 at mouse MAGL (setting [6]) turned out to be 51 nM. Moreover, in data set [1], the “λ Abs max” value was 503 nm and the “λ Em max” value is reported as 512 nm.
On to `O=C1CO[C@H]2CCN(C(=O)N3CC(COCc4ccccc4OCCNc4ccc([N+](=O)[O-])c5nonc45)C3)C[C@H]2N1`, for which the IC50 on human MAGL (read-out: hMAGL IC50, Table 1, n=1 to 3) was 3.92 nM; on mouse MAGL (read-out: mMAGL IC50, Table 1, n=1 to 3) it was 4.53 nM; in data set [2] (read-out: HEK293 nanoBRET IC50, Table 1, transfected HEK293 cells, n=1 to 3) it was 2560 nM. The “λ Abs max” value in data set [1] amounted to 467 nm. Besides, the “λ Em max” value in data set [1] came to 539 nm.
As for `CN1/C(=C/C=C/C2=[N+](CCCCCC(=O)NCCOc3ccccc3COCC3CN(C(=O)N4CC[C@@H]5OCC(=O)N[C@@H]5C4)C3)c3ccccc3C2(C)C)C(C)(C)c2ccccc21`, at human MAGL (setting [5]), the IC50 came to 10 nM. For the same molecule, the IC50 at mouse MAGL (setting [6]) is 31 nM. For the same molecule, in data set [1], the “λ Abs max” value was found to be 552 nm and the “λ Em max” value is on record as 570 nm.
`CC1=CC(C)=[N+]2C1=Cc1ccc(CCC(=O)NCCOc3ccccc3CC3CC4(C3)CN(C(=O)N3CC5(COC(=O)N5)C3)C4)n1[B-]2(F)F`: the IC50 on human MAGL (setting [5]) was found to be 0.125 nM; at human MAGL (setting [7]) it was 0.12 nM; at mouse MAGL (setting [6]), 0.107 nM; at mouse MAGL (setting [8]), 0.14 nM; in data set [2] (setting [9]) it was 162 nM. Further, the “λmax Em (fluorescence emission maximum)” value in data set [1] is 514 nm. In addition, in data set [1], the “λmax Ex (fluorescence excitation maximum)” value is 508 nm. For the same molecule, the “Blocking of serine hydrolase fluorescence signal (selectivity)” value in data set [3] is given as “Complete blocking of the fluorescence signal was exclusively observed for MAGL”. In addition, in the data set with HT-29 cells, the MAGL staining entry is “very specific and selective MAGL staining”.
On to `CC1=CC(C)=[N+]2C1=Cc1ccc(CCC(=O)NCCOc3ccccc3CC3CC4(C3)CN(C(=O)OC(C(F)(F)F)C(F)(F)F)C4)n1[B-]2(F)F`, for which the IC50 on human MAGL (setting [7]) stood at 0.91 nM. The IC50 at mouse MAGL (setting [8]) turned out to be 0.91 nM. The IC50 in data set [2] (setting [9]) was more than 1000 nM. In addition, in data set [1], the “λmax Em (fluorescence emission maximum)” value is given as 514 nm and the “λmax Ex (fluorescence excitation maximum)” value is reported as 508 nm. In addition, in data set [4], the “Probe concentration at which minor off-target protein labeling (approx. 80 kDa) appears” value is on record as “greater than 1 μM” and the “Probe concentration from which MAGL was detected” value was not below 1 nM.

Values taken from PMC11878344 (Angewandte Chemie (International Ed. in English), 2025).
